# In patent publication US11866518B2, “Bicyclic peptide ligands specific for TSLP” (BicycleTx Limited, priority 2020, dated 2024):
# Molecular target: T1, TSLP (Homo sapiens, UniProt Q969D9)
# T1 sequence (Q969D9 29-159): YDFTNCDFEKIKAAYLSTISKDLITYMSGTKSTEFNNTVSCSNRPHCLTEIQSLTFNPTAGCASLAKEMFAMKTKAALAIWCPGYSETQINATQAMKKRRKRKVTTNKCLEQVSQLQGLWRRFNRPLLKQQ
# Assay: Human TSLP Surface Plasmon Resonance (SPR) binding assay
# Set-up: The resulting construct spCD33-6×HN-TEV-hTSLP(29-159)-Avi; 6xHN tag with TEV site (N, cleaved yes); made in house; host or cells: Expi293F cells
# Settings: biotinylated human TSLP immobilized on streptavidin chip; 20° C.; steady-state or kinetic 1:1 fit; read-out: hTSLP SPR Kd
row,Compound,Kd
1,"CC(=O)N[C@H]1CSCCC(=O)N2CN3CN(C2)C(=O)CCSC[C@H](NC(=O)[C@H](CC(=O)O)NC(=O)[C@H](CCC(=O)O)NC(=O)[C@H](CC(C)C)NC(=O)[C@H](Cc2c[nH]c4ccccc24)NC(=O)[C@H](Cc2c[nH]cn2)NC1=O)C(=O)N[C@@H](Cc1c[nH]c2ccccc12)C(=O)N[C@@H](CCCNC(=N)N)C(=O)NCC(=O)N[C@@H](Cc1ccc(F)cc1)C(=O)N[C@H](C(N)=O)CSCCC3=O [Example 19, Ac-(SEQ ID NO: 17)]",6.7 nM
2,"CC(=O)N[C@H]1CSCCC(=O)N2CN3CN(C2)C(=O)CCSC[C@H](NC(=O)[C@H](CC(N)=O)NC(=O)[C@H](CCC(=O)O)NC(=O)[C@H](CC(C)C)NC(=O)[C@H](Cc2c[nH]c4ccccc24)NC(=O)[C@H](CCC(N)=O)NC1=O)C(=O)N[C@@H](Cc1c[nH]c2ccccc12)C(=O)N[C@@H](CCCNC(=N)N)C(=O)NCC(=O)N[C@@H](Cc1ccc(F)cc1)C(=O)N[C@H](C(N)=O)CSCCC3=O [Example 23, Ac-(SEQ ID NO: 21)]",9.9 nM
3,"CC(=O)N[C@H]1CSCCC(=O)N2CN3CN(C2)C(=O)CCSC[C@H](NC(=O)[C@H](CC(=O)O)NC(=O)[C@H](CCC(N)=O)NC(=O)[C@H](CC(C)C)NC(=O)[C@H](Cc2c[nH]c4ccccc24)NC(=O)[C@H](Cc2c[nH]c4ccccc24)NC1=O)C(=O)N[C@@H](Cc1c[nH]c2ccccc12)C(=O)N[C@@H](CCCNC(=N)N(C)C)C(=O)NCC(=O)N[C@@H](Cc1ccc(F)cc1)C(=O)N[C@H](C(N)=O)CSCCC3=O [Example 28, Ac-(SEQ ID NO: 26)]",12 nM
4,"CC(=O)N[C@H]1CSCCC(=O)N2CN3CN(C2)C(=O)CCSC[C@H](NC(=O)[C@H](CC(=O)O)NC(=O)[C@H](Cc2ccccc2)NC(=O)[C@H](CC(C)C)NC(=O)[C@H](Cc2c[nH]c4ccccc24)NC(=O)[C@H](CCC(N)=O)NC1=O)C(=O)N[C@@H](Cc1c[nH]c2ccccc12)C(=O)N[C@@H](CCCNC(=N)N)C(=O)NCC(=O)N[C@@H](Cc1ccc(F)cc1)C(=O)N[C@H](C(=O)O)CSCCC3=O [Example 39, Ac-(SEQ ID NO: 35)-COOH]",21 nM
5,"CC(=O)N[C@H]1CSCCC(=O)N2CN3CN(C2)C(=O)CCSC[C@H](NC(=O)[C@H](CC(=O)O)NC(=O)[C@H](Cc2ccccc2)NC(=O)[C@H](CC(C)C)NC(=O)[C@H](Cc2c[nH]c4ccccc24)NC(=O)[C@H](CCC(N)=O)NC1=O)C(=O)N[C@@H](Cc1c[nH]c2ccccc12)C(=O)N[C@@H](CCCNC(=N)N)C(=O)NCC(=O)N[C@@H](Cc1ccc(F)cc1)C(=O)N[C@H](C(N)=O)CSCCC3=O [Example 43, Ac-(SEQ ID NO: 35)]",30 nM
6,"CSCC[C@@H]1NC(=O)[C@H](Cc2c[nH]c3ccccc23)NC(=O)[C@H](CCC(N)=O)NC(=O)[C@@H](NC(C)=O)CSCCC(=O)N2CN3CN(C2)C(=O)CCSC[C@H](NC(=O)[C@H](CC(=O)O)NC(=O)[C@H](CCC(=O)O)NC1=O)C(=O)N[C@@H](Cc1c[nH]c2ccccc12)C(=O)N[C@@H](CCCNC(=N)N)C(=O)NCC(=O)N[C@@H](Cc1ccc(F)cc1)C(=O)N[C@H](C(N)=O)CSCCC3=O [Example 51, Ac-(SEQ ID NO: 43)]",38 nM
7,"CC[C@H](C)[C@@H]1NC(=O)[C@H](Cc2c[nH]c3ccccc23)NC(=O)[C@H](CCC(N)=O)NC(=O)[C@@H](NC(C)=O)CSCCC(=O)N2CN3CN(C2)C(=O)CCSC[C@H](NC(=O)[C@H](CC(=O)O)NC(=O)[C@H](CCC(=O)O)NC1=O)C(=O)N[C@@H](Cc1c[nH]c2ccccc12)C(=O)N[C@@H](CCCNC(=N)N)C(=O)NCC(=O)N[C@@H](Cc1ccc(F)cc1)C(=O)N[C@H](C(N)=O)CSCCC3=O [Example 57, Ac-(SEQ ID NO: 45)]",51 nM
8,"CC(=O)N[C@H]1CSCCC(=O)N2CN3CN(C2)C(=O)CCSC[C@H](NC(=O)[C@H](CC(=O)O)NC(=O)[C@H](CCC(=O)O)NC(=O)[C@H](CC(C)C)NC(=O)[C@H](Cc2c[nH]c4ccccc24)NC(=O)[C@H](CCC(N)=O)NC1=O)C(=O)N[C@@H](Cc1ccc(Cl)c2ccccc12)C(=O)N[C@@H](CCCNC(=N)N)C(=O)NCC(=O)N[C@@H](Cc1ccc(F)cc1)C(=O)N[C@H](C(N)=O)CSCCC3=O [Example 60, Ac-(SEQ ID NO: 47)]",62 nM
